Test results taken from paper PMC12721191, “Oxidative hypoxia drives TGF-β1–induced fibrosis under normoxia” (Redox Biology, 2025).

Columns and labels:
[1] = system: A549; test: Western blot of HIF-1α, fibrosis and EMT markers in A549; type: cell-based, human
[2] = system: A549; test: Scratch migration assay; type: cell-based, human; details: CoCl2 or FG-4592 treatment

| Molecule | fibrosis-associated proteins (fibronectin, α-SMA, COL3A1, COL4A6) ([1]; A549, ambient air, CoCl2 200 μM, FG-4592 50 μM) | cell migration (wound healing) [2] | fibronectin and COL4A6 expression (Western blot) ([1]; TGF-β1-treated A549, PX-478 co-treatment) |
| --- | --- | --- | --- |
| CoCl2 | increased expression of fibrosis-associated proteins | significant increase in cell migration |  |
| N[C@@H](Cc1ccc([N+]([O-])(CCCl)CCCl)cc1)C(=O)O |  |  | significantly suppressed fibrosis |
